Test system: narrow selection of bacterial strains
Conditions: tested organisms, eight times MIC

COc1c(NC(=O)c2ccc(NC(=O)c3ccc(NC(=O)[C@H](Cc4c[nH]nn4)NC(=O)c4ccc(NC(=O)/C(C)=C/c5ccc(O)cc5)cc4)cc3)c(OC)c2O)ccc(C(=O)O)c1O [Compound 2, AzaHis-albicidin]
formation of resistance (FoR): 10^−10 to 10^−11

Source: paper PMC8580050, “Improvement of the antimicrobial potency, pharmacokinetic and pharmacodynamic properties of albicidin by incorporation of nitrogen atoms” (Chemical Science, 2021)
